According to patent US20250205337A1, “COMPOSITIONS AND METHODS FOR ACTIVATING IMMUNE CELLS” (MDX Management LLC, priority 2022, published 2025):

B1: IL-20: IL-10 family cytokine, STAT3 activator (protein, UniProt Q9NYY1 25-176, looked up)
Interleukin-20: LKTLNLGSCVIATNLQEIRNGFSEIRGSVQAKDGNIDIRILRRTESLQDTKPANRCCLLRHLLRLYLDRVFKNYQTPDHYTLRKISSLANSFLTIKKDLRLCHAHMTCHCGEEAMKKYSQILSHFEKLEPQAAVVKALGELDILLQWMEETE

What was measured:
[1] = test system: monocytes from cancer patients (cMo); test: Cytokine depletion assays of Karnelian X1 (cMo survival/adhesion and differentiation); type: cell-based, human
Excerpt: (§1) Analyses of cytokines identified IFNγ, IL-2, IL-10, TNFα, GM-CSF, IL-6, IL-17, M-CSF, and IL-4 (FIG. 5A). Particularly, high levels of IL-10 and IL-6 were detected in Karnelian X1. Further cytokine depletion assays confirmed the critical role of IL-10, and its depletion largely (60-80%) diminished the capacity of cMo adhesion and survival (FIG. 5B).
Three other cytokines, TNFα, IFNγ and IL-4, were also found to be important. Depletion of TNFα or IFNγ in Karnelian X1 reduced both cMo survival (˜20%) and survived cMo differentiation into APCs (30-70% reduction of MHC-II) (FIG. 5B). […] The differentiation of cMo from >100 cancer patient samples was tested. […] FIG. 6E summarizes the roles of each cytokine in Karnelian X1 as defined by detailed experiments. Among other cytokines, IL-2, IL-17 and M-CSF were dispensable, while the roles of GM-CSF and IL-6 were variable. […] This fact of cMo contrasts to Monocytes from healthy donors that generally display nearly unified receptor expression and responses to treatments.
The role of IL-10 and other key factors in KX1 was further studied. As shown in FIG. 9A-9D, depletion of IL-10 diminished (>70%) KX1-mediated activation of Akt, Erk 1/2, and STAT3, and this global reduction of survival signal was associated with an increase in cell death signal through activation of caspase-9 and caspase-3.

[2] = test system: monocytes from cancer patients (cMo); test: cMo survival in vitro (STAT3 activators, inhibitors, M-CSF/GM-CSF, KX1); type: cell-based, human
Excerpt: Similarly, cMo poorly respond to GM-CSF alone or GM-CSF plus IL-4 that drives DC differentiation (data not shown). […] Parallel experiments testing the same M-CSF and GM-CSF reagents successfully differentiated Mo from healthy donors with >90% survival rates.
In these experiments (see FIG. 3A), freshly isolated T cells from PBMC from either healthy donors or autologous cancer patients were ligated with anti-CD3 and anti-CD28 antibodies to trigger TCR activation in “autoimmune” CD4 T cells, which secreted abnormally high level of IL-10 (>20 ng/ml) during the first round of anti-CD3/anti-CD28 co-stimulation (FIGS. 3A-3D). After two days, the T cell culture medium was used to treat cMo. […] Further, this culture condition induced their phenotypic differentiation into professional APCs (FIG. 3I).
as §1
IL-10/IL-10R signaling activates the downstream STAT3 signaling pathway. Other cytokines in the IL-10 family can activate STAT3 and were further shown to induce similar levels of cMo survival in vitro. […] IL-6 is a known activator of the STAT3 pathway, however the cMo survival rates were lowest when incubated with IL-6 alone, thereby highlighting the unexpected results of IL-10, IL-12, and their cytokine family members as a pro-survival mechanism for cMos in vitro.
The mechanisms by which KX1 could promote cMo survival was further studied.

Molecule | role of the cytokine in Karnelian X1 for cMo survival and differentiation [1] | cMo survival (and differentiation) on supplementation ([2]; IL-10-depleted KX1 / in place of IL-10) | Effectiveness (cMo survival rate) ([2]; in vitro, at optimal concentration) | Optimal concentration (ng/mL) ([2]; promoting cMo survival in vitro)
IL-2: cytokine in Karnelian X1 | dispensable |  |  | 
B1 |  | could replace IL-10 to support cMo survival and differentiation | 70-85% | >10 ng/mL (10-100)
